For this test, the target named is type 1 collagen. In words: ELISA, coll1 plated in scalar doses, JMJD6v2 rec 10 nM, anti-FLAG (DDK) detection. In general terms: ELISA stands for enzyme-linked immunosorbent assay.

The record followed here is patent US20180044433A1.

“recombinant human JMJD6 variant 2 with C-terminal FLAG (DDK) (from UniProt Q6NYC1 1-403) (enzyme)” displayed a lowest plated dose at which binding is detected of 0.016 pmoles/well.
